Measured values taken from PubChem BioAssay AID720706 (Broad Institute, 2013).
The entries are a selection whose mix differs from that of the whole data set. Active and inactive are the calls of the source.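 Rule for the calls: active = significant combined selectivity score with lowered wild-type GFP, culture density cut under 30%, mutant RFP and density less affected; inactive = any of these conditions unmet.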

assay: GFP drop in mixed WT/humanized-ribosome E. coli culture – GFP/RFP fluorescence, OD600, single point, bacterial rRNA inhibitor project, primary screen (AID 720706); conditions: E. coli WT GFP vs humanized-ribosome RFP mutants, 24 h, active compounds read low, DMSO median 0, no signal -100

SMILES	GFP signal change (wild-type ribosome)
CCC(=O)N(c1ccccc1)C1(COC)CCN(CCc2cccs2)CC1	inactive: -0.05%
CCC(=O)N(c1ccccc1)C1(COC)CCN(CCn2nnn(CC)c2=O)CC1	inactive: 2.08%
